The values that follow are results of earlier work, collected in US4020150A (priority 1974, dated 1977).

Structures are written as SMILES.

For the series the following is noted: in water; cited from earlier work.

As to `Nc1ccc(S(=O)(=O)Nc2ncccn2)cc1` [sulfadiazine], the pKa is reported as 6.5.

Broadly, the pKa is the pH at which an ionisable group is half protonated.
